# Values of other authors, collected in patent US8344017B2, “Anti-hepatitis C virus agents and anti-HIV agents” (Mitsubishi Corporation, priority 2003, dated 2013).
# Amino acid sequences for entries named in this document (tags omitted). Residues count along the entry.
# UniProt P27958, 2421-3011: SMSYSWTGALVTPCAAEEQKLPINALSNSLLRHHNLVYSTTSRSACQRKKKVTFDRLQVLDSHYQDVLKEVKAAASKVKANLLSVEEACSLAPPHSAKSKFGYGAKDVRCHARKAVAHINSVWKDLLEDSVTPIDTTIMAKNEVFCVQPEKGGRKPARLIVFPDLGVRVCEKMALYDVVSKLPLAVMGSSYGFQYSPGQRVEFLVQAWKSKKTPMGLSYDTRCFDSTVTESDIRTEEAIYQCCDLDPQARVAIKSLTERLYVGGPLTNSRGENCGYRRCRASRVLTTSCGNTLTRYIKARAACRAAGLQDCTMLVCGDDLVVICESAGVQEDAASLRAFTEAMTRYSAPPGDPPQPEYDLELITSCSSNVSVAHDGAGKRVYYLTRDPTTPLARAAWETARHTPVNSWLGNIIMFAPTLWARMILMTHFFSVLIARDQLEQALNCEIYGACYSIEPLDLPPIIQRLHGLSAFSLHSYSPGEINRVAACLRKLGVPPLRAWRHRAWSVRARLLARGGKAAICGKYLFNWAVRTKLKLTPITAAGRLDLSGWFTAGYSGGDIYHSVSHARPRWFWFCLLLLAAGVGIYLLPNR
# Target: RNA polymerase of hepatitis C virus (Hepatitis C virus genotype 1a, UniProt P27958)
# Details: read-out: 50% inhibition concentration, reported by D. Dhanak et al., J. Biol. Chem. 2002; cited from earlier work
smiles,measurement,value
CC(C)CCn1c(=O)c(C2=NS(=O)(=O)c3ccccc3N2)c(O)c2ccccc21,IC50,80 nM
